Amino acid sequences for entries named in this document (tags omitted).
UniProt Q12809, whole entry: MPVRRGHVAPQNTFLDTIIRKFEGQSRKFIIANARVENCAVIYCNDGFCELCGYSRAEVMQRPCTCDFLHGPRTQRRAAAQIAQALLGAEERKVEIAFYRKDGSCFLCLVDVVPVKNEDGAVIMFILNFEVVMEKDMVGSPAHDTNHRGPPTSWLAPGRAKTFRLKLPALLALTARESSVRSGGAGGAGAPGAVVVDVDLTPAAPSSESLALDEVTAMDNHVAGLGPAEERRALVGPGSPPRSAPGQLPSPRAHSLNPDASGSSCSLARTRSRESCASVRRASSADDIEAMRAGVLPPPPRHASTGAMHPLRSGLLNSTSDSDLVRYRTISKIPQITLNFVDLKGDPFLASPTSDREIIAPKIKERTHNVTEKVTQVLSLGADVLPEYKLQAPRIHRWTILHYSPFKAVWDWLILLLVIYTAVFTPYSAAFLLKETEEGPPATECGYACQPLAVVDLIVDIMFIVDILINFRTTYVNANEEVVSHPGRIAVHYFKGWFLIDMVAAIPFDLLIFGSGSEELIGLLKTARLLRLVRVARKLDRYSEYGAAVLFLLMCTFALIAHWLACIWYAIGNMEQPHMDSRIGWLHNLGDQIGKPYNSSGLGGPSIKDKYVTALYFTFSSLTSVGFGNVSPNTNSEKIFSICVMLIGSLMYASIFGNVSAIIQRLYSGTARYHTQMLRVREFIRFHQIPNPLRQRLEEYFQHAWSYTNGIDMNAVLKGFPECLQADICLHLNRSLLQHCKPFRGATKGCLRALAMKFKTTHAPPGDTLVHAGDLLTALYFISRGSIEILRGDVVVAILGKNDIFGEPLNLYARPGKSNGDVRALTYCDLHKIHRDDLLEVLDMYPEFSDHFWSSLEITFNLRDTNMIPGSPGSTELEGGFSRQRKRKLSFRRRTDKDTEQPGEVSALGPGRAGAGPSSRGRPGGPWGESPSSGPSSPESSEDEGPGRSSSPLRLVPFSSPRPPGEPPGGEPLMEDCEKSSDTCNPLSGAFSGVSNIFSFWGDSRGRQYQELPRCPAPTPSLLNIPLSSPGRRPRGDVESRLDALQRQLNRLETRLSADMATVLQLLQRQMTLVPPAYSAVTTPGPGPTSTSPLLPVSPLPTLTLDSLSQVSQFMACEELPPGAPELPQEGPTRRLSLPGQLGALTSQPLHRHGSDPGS

In patent US20250333410A1, “COMPOUND FOR INHIBITING OR DEGRADING BCL6 AND USE THEREOF IN PHARMACEUTICS” (XIZANG HAISCO PHARMACEUTICAL CO., LTD., priority 2022, published 2025):

What was measured:
[1] = Pharmacokinetic test in rats; conditions: rats plasma, i.g. 5 mg/kg; tested form: TFA
[2] = target: T1, Bcl6 (Homo sapiens (Human), UniProt P41182); assay: Bcl-6 protein degradation experiment in Farage cells; format: cell-based
[3] = Pharmacokinetic test in mice; conditions: i.g. 5 mg/kg, tested form: TFA; for AUC0-t: mice plasma
[4] = target: hERG potassium ion channel (Homo sapiens (Human), UniProt Q12809); assay: Test for hERG potassium ion channel (manual patch-clamp, CHO cells); conditions: read-out: IC50 of inhibitory effects on hERG potassium channel current; CHO cells stably expressing hERG, whole cell patch-clamp; tested form: TFA
[5] = target: T1, Bcl6; assay: Bcl-6 protein degradation experiment in OCI-LY1 cells; conditions: read-out: Bcl6 DC50, 24 hours, tested form: TFA
[6] = read-out: Bcl6 DC50, 24 hours, tested form: TFA

SMILES	DC50 [2, 6]	also measured
[2H]C([2H])([2H])NC(=O)COc1cc2cc(Nc3nc(N4CCC(CN5CCN6c7cc(F)c(C8CCC(=O)NC8=O)cc7CC[C@@H]6C5)CC4)ncc3Cl)ccc2n(C(C)C)c1=O (stereo partly shown)	< 10 nM	AUC0-t [1]: >1000 ng·h/mL
CNC(=O)COc1cc2cc(Nc3nc(N4CCN(CC5CCN(c6ccc(C7CCC(=O)NC7=O)cc6)CC5)CC4)ncc3Cl)ccc2n(CC2CC2)c1=O (stereo not shown)	< 10 nM	
CNC(=O)COc1cc2cc(Nc3nc(N4CCC(CN5CCN6c7cc(F)c(C8CCC(=O)NC8=O)cc7CC[C@H]6C5)CC4)ncc3Cl)ccc2n(C)c1=O (stereo partly shown)	< 10 nM	AUC0-t [3]: >1000 ng·h/mL; IC50 [4]: > 30000 nM
CNC(=O)COc1cc2cc(Nc3nc(N4CCC(CN5CCN6c7ccc(C8CCC(=O)NC8=O)cc7CCC6C5)CC4)ncc3Cl)ccc2n(C)c1=O (single isomer, unassigned)	< 10 nM	
CNC(=O)COc1cc2cc(Nc3nc(N4CC[C@@H](O[C@H]5C[C@H](N6CCN7c8cc(F)c(C9CCC(=O)NC9=O)cc8CC[C@H]7C6)C5)[C@@H](F)C4)ncc3Cl)ccc2n(C(C)C)c1=O (stereo partly shown)	< 10 nM	
CNC(=O)COc1cc2cc(Nc3nc(N4CCC(CN5CCN6c7ccc(N8CCC(=O)NC8=O)cc7CCC6C5)CC4)ncc3Cl)ccc2n(C)c1=O (stereo not shown)	< 10 nM	
CC#CCn1c(=O)c(OCC(=O)NC)cc2cc(Nc3nc(N4CCN(CC5CCN(c6ccc(C7CCC(=O)NC7=O)cc6)CC5)CC4)ncc3Cl)ccc21 (stereo not shown)	< 10 nM	
C#CCn1c(=O)c(OCC(=O)NC)cc2cc(Nc3nc(N4CCN(CC5CCN(c6ccc(C7CCC(=O)NC7=O)cc6)CC5)CC4)ncc3Cl)ccc21 (stereo not shown)	< 10 nM	
CNC(=O)COc1cc2cc(Nc3nc(N4C[C@H]5CC(N6CCN7c8cc(F)c(C9CCC(=O)NC9=O)cc8CC[C@@H]7C6)C[C@H]5C4)ncc3Cl)ccc2n(C(C)C)c1=O (stereo partly shown)	< 10 nM	
CNC(=O)COc1cc2cc(Nc3nc(N4CCC(CN5CCN6c7cc(F)c(C8CCC(=O)NC8=O)cc7CC[C@@H]6C5)CC4)ncc3Cl)ccc2n(C)c1=O (stereo partly shown)	< 10 nM	AUC0-t [3]: >1000 ng·h/mL
CNC(=O)COc1cc2cc(Nc3nc(N4C[C@H]5CC(N6CCN7c8cc(F)c(C9CCC(=O)NC9=O)cc8CC[C@H]7C6)C[C@H]5C4)ncc3Cl)ccc2n(C(C)C)c1=O (stereo partly shown)	< 10 nM	
CNC(=O)COc1cc2cc(Nc3nc(N4CCN(CC5CCN(c6ccc(C7CCC(=O)NC7=O)cc6)CC5)CC4)ncc3Cl)ccc2n(C2CC2)c1=O (stereo not shown)	< 10 nM	
CNC(=O)COc1cc2cc(Nc3nc(N4CCC(CN5CCN6c7ccc(C8CCC(=O)NC8=O)cc7N(C)C(=O)[C@@H]6C5)CC4)ncc3Cl)ccc2n(C)c1=O (stereo partly shown)	< 10 nM	
CNC(=O)COc1cc2cc(Nc3nc(N4CCN(CC5CCN(c6cc(F)c(C7CCC(=O)NC7=O)c(F)c6)CC5)CC4)ncc3Cl)ccc2n(C)c1=O (stereo not shown)	< 10 nM	AUC0-t [3]: >1000 ng·h/mL; F ([3]; mice): >50%
CNC(=O)COc1cc2cc(Nc3nc(N4CCC(CN5CCN6c7ccc(C8CCC(=O)NC8=O)cc7NC(=O)[C@@H]6C5)CC4)ncc3Cl)ccc2n(C)c1=O (stereo partly shown)	< 10 nM	
CNC(=O)COc1cc2cc(Nc3nc(N4CCC(O[C@H]5C[C@H](N6CCN7c8cc(F)c(C9CCC(=O)NC9=O)cc8CC[C@H]7C6)C5)C(F)(F)C4)ncc3Cl)ccc2n(C(C)C)c1=O (single isomer, unassigned)	< 10 nM	
CNC(=O)COc1cc2cc(Nc3nc(N4CCC(CN5CCN6c7ccc(C8CCC(=O)NC8=O)cc7NC(=O)[C@H]6C5)CC4)ncc3Cl)ccc2n(C)c1=O (stereo partly shown)		DC50 [5]: < 100 nM
CCn1c(=O)c(OCC(=O)NC)cc2cc(Nc3nc(N4CCC(CN5CCn6c(cc7cc(C8CCC(=O)NC8=O)c(F)cc76)C5)CC4)ncc3Cl)ccc21 (stereo not shown)	< 10 nM	IC50 [4]: > 40000 nM
CNC(=O)COc1cc2cc(Nc3nc(N4CCC(CN5CCN6c7cc(F)c(C8CCC(=O)NC8=O)cc7CC[C@H]6C5)CC4)ncc3Cl)ccc2n(C(C)C)c1=O (single isomer, unassigned)	< 10 nM	DC50 ([2]; read-out: Bcl6 DC50, 24 hours): < 10 nM
CNC(=O)COc1cc2cc(Nc3nc(N4CC[C@@H](O[C@H]5C[C@H](N6CCN7c8cc(F)c(C9CCC(=O)NC9=O)cc8CC[C@@H]7C6)C5)[C@@H](F)C4)ncc3Cl)ccc2n(C(C)C)c1=O (stereo partly shown)	< 10 nM	
